Assay [1] addresses T1, Cyclin-dependent kinase 1/cyclin B (Homo sapiens) (UniProt P06493+P14635+Q8WWL7+O95067). The note with it: Asteroidea.
The target of assay [2] is Cyclin-dependent kinase 2/cyclin E (Homo sapiens) (UniProt P24864+P24941+O96020). The conditions noted are these: Asteroidea.
The target of assay [3] is T1, Cyclin-dependent kinase 1/cyclin B (Homo sapiens). As to the kind of experiment: Inhibition of Cyclin-dependent kinase 1-cyclin B. The format is protein-complex assay.
Assay [4] deals with Cyclin-dependent kinase 4/cyclin D (Homo sapiens) (UniProt P11802+P24385+P30281+P30279). As to the kind of experiment: Inhibition of Cyclin-dependent kinase 4-cyclin D. The format is protein-complex assay.

Protein sequences, listed by entry. Tags and fused reporters are not part of them. Lines headed by an entry give the natural chain unless they say otherwise; changes in a name come on top.
UniProt P06493, whole entry, looked up: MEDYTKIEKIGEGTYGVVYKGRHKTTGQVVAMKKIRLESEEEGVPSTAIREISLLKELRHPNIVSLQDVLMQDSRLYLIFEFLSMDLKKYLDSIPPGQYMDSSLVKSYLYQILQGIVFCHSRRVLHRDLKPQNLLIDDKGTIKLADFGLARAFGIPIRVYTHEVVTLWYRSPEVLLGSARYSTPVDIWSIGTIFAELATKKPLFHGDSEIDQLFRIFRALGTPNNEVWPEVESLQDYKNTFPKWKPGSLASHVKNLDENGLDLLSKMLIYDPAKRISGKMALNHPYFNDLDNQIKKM
UniProt P14635, whole entry, looked up: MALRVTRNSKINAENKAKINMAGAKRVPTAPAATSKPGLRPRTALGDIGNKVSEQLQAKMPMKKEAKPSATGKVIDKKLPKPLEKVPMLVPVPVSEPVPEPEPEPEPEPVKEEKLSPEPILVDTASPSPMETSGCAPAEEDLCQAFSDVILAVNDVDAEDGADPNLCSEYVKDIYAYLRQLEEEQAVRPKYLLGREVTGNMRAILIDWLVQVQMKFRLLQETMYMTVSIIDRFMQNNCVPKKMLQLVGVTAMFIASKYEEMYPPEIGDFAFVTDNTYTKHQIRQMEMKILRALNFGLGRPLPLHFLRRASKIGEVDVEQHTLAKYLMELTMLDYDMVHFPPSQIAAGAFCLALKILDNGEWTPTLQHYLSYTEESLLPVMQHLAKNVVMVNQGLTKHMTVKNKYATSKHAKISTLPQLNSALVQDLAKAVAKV
UniProt Q8WWL7, whole entry, looked up: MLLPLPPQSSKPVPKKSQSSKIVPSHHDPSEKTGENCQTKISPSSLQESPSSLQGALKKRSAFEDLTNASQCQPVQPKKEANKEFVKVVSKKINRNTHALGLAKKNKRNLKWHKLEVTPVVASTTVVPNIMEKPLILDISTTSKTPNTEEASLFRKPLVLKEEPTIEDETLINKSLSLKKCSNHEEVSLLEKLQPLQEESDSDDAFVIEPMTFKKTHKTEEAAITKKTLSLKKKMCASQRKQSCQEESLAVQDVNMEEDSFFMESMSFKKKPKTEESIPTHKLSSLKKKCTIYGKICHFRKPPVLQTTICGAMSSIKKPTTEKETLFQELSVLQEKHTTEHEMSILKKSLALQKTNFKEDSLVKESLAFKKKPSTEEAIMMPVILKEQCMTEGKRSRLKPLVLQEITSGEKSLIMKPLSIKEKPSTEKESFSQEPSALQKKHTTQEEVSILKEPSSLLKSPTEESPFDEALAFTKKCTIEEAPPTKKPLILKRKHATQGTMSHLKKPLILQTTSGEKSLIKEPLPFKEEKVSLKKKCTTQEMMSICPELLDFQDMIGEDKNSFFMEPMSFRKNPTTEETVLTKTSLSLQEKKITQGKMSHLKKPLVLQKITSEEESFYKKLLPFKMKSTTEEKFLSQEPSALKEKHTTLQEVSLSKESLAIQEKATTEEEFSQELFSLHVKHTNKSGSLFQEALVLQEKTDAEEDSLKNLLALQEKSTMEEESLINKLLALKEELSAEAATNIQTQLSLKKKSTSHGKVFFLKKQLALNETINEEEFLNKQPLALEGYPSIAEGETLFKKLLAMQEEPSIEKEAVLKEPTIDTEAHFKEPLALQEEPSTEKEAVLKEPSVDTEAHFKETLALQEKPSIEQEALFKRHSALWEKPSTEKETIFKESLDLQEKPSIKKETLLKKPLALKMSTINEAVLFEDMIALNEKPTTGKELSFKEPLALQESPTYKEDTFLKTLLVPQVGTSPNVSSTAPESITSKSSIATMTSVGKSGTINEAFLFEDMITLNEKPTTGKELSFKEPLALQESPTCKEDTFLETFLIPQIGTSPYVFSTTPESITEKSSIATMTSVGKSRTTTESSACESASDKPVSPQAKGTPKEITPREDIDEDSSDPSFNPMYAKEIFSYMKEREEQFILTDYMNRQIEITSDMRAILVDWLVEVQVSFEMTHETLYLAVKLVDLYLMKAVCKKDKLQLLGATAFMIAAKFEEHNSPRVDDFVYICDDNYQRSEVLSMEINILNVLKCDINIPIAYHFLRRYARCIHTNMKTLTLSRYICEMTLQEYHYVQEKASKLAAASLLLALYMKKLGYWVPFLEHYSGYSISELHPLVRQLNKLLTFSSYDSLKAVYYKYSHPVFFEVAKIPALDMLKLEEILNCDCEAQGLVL
UniProt O95067, whole entry, looked up: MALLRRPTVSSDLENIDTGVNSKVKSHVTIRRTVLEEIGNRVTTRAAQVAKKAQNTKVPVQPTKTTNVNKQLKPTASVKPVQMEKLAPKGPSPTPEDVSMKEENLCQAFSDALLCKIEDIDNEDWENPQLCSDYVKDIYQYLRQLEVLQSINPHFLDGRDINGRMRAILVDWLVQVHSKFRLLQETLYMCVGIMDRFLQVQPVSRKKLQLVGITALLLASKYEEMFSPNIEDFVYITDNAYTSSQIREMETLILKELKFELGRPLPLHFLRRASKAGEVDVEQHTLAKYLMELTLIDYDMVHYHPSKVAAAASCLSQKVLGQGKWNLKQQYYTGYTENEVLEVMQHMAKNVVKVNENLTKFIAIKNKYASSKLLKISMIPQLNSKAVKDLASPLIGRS
UniProt P24864, whole entry, looked up: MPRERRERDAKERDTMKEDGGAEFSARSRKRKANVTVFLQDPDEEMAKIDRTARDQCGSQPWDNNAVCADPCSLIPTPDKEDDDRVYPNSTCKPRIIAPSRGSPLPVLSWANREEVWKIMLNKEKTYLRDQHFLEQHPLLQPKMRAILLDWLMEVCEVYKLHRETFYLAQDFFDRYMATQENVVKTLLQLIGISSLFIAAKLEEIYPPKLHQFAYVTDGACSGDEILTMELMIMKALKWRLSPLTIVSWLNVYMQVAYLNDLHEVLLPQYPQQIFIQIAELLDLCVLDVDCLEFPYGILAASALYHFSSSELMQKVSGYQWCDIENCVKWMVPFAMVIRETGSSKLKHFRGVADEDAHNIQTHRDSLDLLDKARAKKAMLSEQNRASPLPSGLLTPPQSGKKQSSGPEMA
UniProt O96020, whole entry, looked up: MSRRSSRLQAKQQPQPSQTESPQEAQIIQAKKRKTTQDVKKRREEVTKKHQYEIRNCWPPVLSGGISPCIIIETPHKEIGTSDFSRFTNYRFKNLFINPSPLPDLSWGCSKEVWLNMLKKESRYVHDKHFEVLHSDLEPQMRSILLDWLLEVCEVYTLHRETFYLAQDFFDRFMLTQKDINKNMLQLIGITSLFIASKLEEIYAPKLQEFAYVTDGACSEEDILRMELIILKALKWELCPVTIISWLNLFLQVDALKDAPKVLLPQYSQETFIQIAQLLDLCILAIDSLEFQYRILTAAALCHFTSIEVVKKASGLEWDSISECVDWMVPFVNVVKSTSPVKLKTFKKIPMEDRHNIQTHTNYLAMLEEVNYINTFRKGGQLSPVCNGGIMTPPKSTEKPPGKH
UniProt P11802: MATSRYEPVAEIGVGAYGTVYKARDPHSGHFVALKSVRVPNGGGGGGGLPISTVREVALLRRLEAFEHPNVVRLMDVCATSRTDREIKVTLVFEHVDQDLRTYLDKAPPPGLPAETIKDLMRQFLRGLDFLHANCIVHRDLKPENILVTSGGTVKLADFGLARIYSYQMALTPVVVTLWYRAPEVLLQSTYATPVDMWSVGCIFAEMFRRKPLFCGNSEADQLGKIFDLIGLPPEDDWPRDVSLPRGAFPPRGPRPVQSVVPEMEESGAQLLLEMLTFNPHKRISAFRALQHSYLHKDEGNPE
UniProt P24385, whole entry, looked up: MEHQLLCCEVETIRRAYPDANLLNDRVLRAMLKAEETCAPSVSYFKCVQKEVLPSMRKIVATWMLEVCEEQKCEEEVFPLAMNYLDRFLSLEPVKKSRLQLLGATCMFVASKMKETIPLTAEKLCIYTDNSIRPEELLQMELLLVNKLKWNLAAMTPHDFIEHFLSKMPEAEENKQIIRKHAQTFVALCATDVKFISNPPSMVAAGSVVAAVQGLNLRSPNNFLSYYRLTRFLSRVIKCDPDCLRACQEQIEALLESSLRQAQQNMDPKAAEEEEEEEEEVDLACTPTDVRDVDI
UniProt P30281: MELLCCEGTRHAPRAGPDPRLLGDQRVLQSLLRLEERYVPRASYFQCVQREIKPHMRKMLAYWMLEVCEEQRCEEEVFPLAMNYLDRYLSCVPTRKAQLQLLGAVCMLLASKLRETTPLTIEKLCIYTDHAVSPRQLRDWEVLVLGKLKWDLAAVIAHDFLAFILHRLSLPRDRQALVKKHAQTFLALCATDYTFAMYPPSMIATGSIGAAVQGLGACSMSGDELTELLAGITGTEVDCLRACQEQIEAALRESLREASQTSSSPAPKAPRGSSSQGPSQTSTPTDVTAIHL
UniProt P30279, whole entry, looked up: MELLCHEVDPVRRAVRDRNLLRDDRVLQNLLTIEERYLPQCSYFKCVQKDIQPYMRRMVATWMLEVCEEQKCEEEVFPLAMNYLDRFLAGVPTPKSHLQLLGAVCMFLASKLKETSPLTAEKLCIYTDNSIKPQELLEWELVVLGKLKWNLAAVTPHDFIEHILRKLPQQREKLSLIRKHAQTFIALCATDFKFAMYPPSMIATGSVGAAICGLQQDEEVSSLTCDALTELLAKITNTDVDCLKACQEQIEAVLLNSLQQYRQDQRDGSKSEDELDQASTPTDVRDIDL

SMILES strings stand for the structures.

Turning to `O=C1Cc2c([nH]c3ccccc23)-c2ccccc2N1`, in assay [1], the ID50 was 7000 nM.
The compound `CC(C)[C@H](CO)Nc1nc(Nc2ccc(C(=O)O)c(Cl)c2)c2ncn(C(C)C)c2n1` showed an ID50 in assay [2] of 9 nM.
As to `CN1CC[C@H](c2c(O)cc(O)c3c(=O)cc(-c4ccccc4Cl)oc23)[C@H](O)C1`, the ID50 in assay [3] and in assay [4] was 400 nM each time.

These data come from ChEMBL document CHEMBL1133166, “Cyclin-dependent kinase inhibitors: useful targets in cell cycle regulation” (J Med Chem, 2000).
